Source: patent US20090105136A1, “NPY Y2 Agonist for Use as Therapeutic Agent for Disease Accompanied by Diarrhea” (priority 2005, published 2009)

Experiments:
Type in all cases: in vivo
[1] = system: mice (C57BL/6); assay: Motility of stomach and small intestine (charcoal transit, GI motility); conditions: 0.3 mg/kg or 3 mg/kg intraperitoneal; 30 minutes after oral charcoal; vs vehicle control mice; FIG. 1
Protocol: First, mice (C57BL/6) to be used in the test were prepared. Mice were individually housed in cages with a floor mat in an animal room with a controlled environment (temperature: 23° C., relative humidity: 55%, lighting hours: from 7:00 till 19:00) with ad libitum access to rodent chow (CE-2, Nippon CLEA) and drinking water.
Subsequently, NPY (0.3 mg/kg or 3 mg/kg) or PYY3-36 (0.3 mg/kg or 3 mg/kg) was intraperitoneally administered to the mice, and the motility of stomach and small intestine was measured. At the same time, control mice (vehicle) to which only a vehicle was administered were prepared, and the same test was carried out using these mice. The motility of stomach and small intestine was measured as follows. That is, charcoal powder was suspended in a 0.5% methyl cellulose solution and the resulting suspension was orally administered to the mice. After 30 minutes, the distance that the charcoal entering into the stomach traveled in the intestinal tract was measured by dissection. At the same time, the total length of the small intestine from the pyloric portion of stomach to the beginning of the cecum was also measured, and the ratio (%) of the distance that the charcoal traveled to the total length of the small intestine was plotted in a graph as a GI (gastrointestinal) motility.

[2] = system: mice (C57BL/6); assay: Fecal weight as indicator for colonic motility; conditions: 3 mg/kg intraperitoneal, vs vehicle control mice
Protocol: (§1) In the test, mice (C57BL/6) were used, and they were housed and fed in the same manner as in Example 1.
Subsequently, PYY3-36 (3 mg/kg) was intraperitoneally administered to the mice, and the fecal weight was measured in a time-dependent manner (1, 2, 3, and 4 hours after the administration). At the same time, the fecal weight was also measured for control mice to which only a vehicle was administered.

[3] = system: mice (C57BL/6); assay: Castor oil-induced defecation and diarrheal symptom
Protocol: as §1
Subsequently, each of PYY3-36 (3 mg/kg) and other test agents (loperamide (1 mg/kg) (Comparative example 1) and atropine (10 mg/kg) (Comparative example 2)) was intraperitoneally administered to the mice, and at 15 minutes after the administration, castor oil (0.3 ml/animal) was orally administered to the mice. The fecal weight and diarrhea score (normal: 0, soft feces: 1, watery feces: 2) were measured in a time-dependent manner (1, 2, and 4 hours after the administration). At the same time, the same measurement was carried out for mice to which only a vehicle was administered and castor oil was not administered.

## PYY3-36
[1]
  GI (gastrointestinal) motility: ratio of distance the charcoal traveled to total length of small intestine: lower than that of the control mice
[2]; 1, 2, 3 and 4 hours after administration, FIG. 2
  fecal weight over time: significantly lower than that of the control mice
[2]; FIG. 3
  total fecal weight in 4 hours after administration: a significant difference was observed
[3]; 3 mg/kg intraperitoneal 15 minutes before castor oil, score normal 0, soft feces 1, watery feces 2, vs vehicle plus castor oil control mice, FIG. 5
  maximum diarrhea score observed until 4 hours after castor oil: significantly inhibited
[3]; 3 mg/kg intraperitoneal 15 minutes before oral castor oil 0.3 ml/animal, 1, 2 and 4 hours, vs vehicle plus castor oil control mice, FIG. 4
  fecal weight after castor oil treatment: significantly lower than that of the control mice
[3]; PYY3-36 3 mg/kg vs loperamide 1 mg/kg and atropine 10 mg/kg, intraperitoneal, castor oil model
  inhibitory effect on diarrheal symptom in comparison with loperamide and atropine: high inhibitory effect
